From patent US10538558B2, “Inhibition of TCR signaling with peptide variants” (priority 2009, dated 2020)

Experiment: Solubility
Conditions: aqueous solutions

In the case of `CC[C@H](C)[C@H](NC(=O)[C@H](CCC(N)=O)NC(=O)[C@H](CO)NC(=O)[C@H](Cc1ccccc1)NC(=O)[C@H](CC(N)=O)NC(=O)[C@H](Cc1ccccc1)NC(=O)CNC(=O)CNC(=O)[C@H](Cc1ccccc1)NC(=O)[C@H](Cc1ccc(O)cc1)NC(=O)[C@H](C)NC(=O)[C@H](CC(C)C)NC(=O)[C@@H](NC(=O)[C@@H]1CCCN1C(=O)[C@@H](NC(=O)[C@H](C)NC(=O)[C@H](Cc1ccc(O)cc1)NC(=O)[C@@H](N)CCSC)[C@@H](C)O)[C@@H](C)O)C(=O)N[C@@H](CC(C)C)C(=O)O`, the solubility is reported as “insoluble in aqueous solutions”.
